Measurements as given in patent US9706755B2, “Controlled odor mimic permeation system” (dated 2017).

Legend:
[1] = Vapour pressure of organic explosives at 25° C.; conditions: for Vapour Pressure at 25° C.: extrapolated values (*)
[2] = tested on: explosives detection canines; test: Overall / individual canine performance (alerts plus interests over all hides; real explosives, odor chemicals, NESTT silica and petrolatum aids; Tables 69-72); conditions: for total number of alerts or interest / total number of hides: interest reported as alert; for overall canine population response to odor chemical (alert/interest): Table 70, all field tests pooled, canines 120, 140, 141 discounted; for Total, alerts or interest / hides / Total, alerts or interest as percent of hides: all canines 101-144; for Adjusted Total, alerts or interest / hides / Adjusted Total, alerts or interest as percent of hides: removing canines 120, 140 & 141
dogs in training = test: Initial imprinting of dogs in training on silica TNT mimic aid, cross-over to real TNT (Table 92); conditions: 28 g explosive in Scratch Box; dogs A, B, C imprinted on COMPS TNT aid, plus FIU dog
[3] = Dog Number 120 (20/28 false alerts, discounted from adjusted totals)
[4] = Table 69, alerts or interests over total hides
[5] = listed as 2,4,6-Trinitrotoluene

Structure (SMILES): CC1(C)OOC(C)(C)OOC(C)(C)OO1
- Vapour Pressure at 25° C. [1]: 3.7 × 10^−1* torr

Structure (SMILES): O=[N+]([O-])c1cccc([N+](=O)[O-])c1
- total number of alerts or interest / total number of hides ([2]; Dog Number 101): 0/2
- total number of alerts or interest / total number of hides ([2]; Dog Number 102): 0/1
- total number of alerts or interest / total number of hides ([2]; Dog Number 103): 0/1
- total number of alerts or interest / total number of hides ([2]; Dog Number 104): 0/1
- total number of alerts or interest / total number of hides ([2]; Dog Number 105): 0/1
- total number of alerts or interest / total number of hides ([2]; Dog Number 106): 2/2
- total number of alerts or interest / total number of hides ([2]; Dog Number 107): 0/1
- total number of alerts or interest / total number of hides ([2]; Dog Number 108): 1/2
- total number of alerts or interest / total number of hides ([2]; Dog Number 109): 1/2
- total number of alerts or interest / total number of hides ([2]; Dog Number 110): 0/2
- total number of alerts or interest / total number of hides ([2]; Dog Number 111): 1/1
- total number of alerts or interest / total number of hides ([2]; Dog Number 112): 1/1
- total number of alerts or interest / total number of hides ([2]; Dog Number 113): 1/2
- total number of alerts or interest / total number of hides ([2]; Dog Number 114): 1/1
- total number of alerts or interest / total number of hides ([2]; Dog Number 115): 1/1
- total number of alerts or interest / total number of hides ([2]; Dog Number 116): 1/1
- total number of alerts or interest / total number of hides ([2]; Dog Number 117): 0/1
- total number of alerts or interest / total number of hides ([2]; Dog Number 118): 0/1
- total number of alerts or interest / total number of hides ([2]; Dog Number 119): 0/1
- total number of alerts or interest / total number of hides ([2]; Dog Number 121): 0/1
- overall canine population response to odor chemical (alert/interest) [2]: 38.5%
- Total, alerts or interest / hides [2]: 10/26
- Total, alerts or interest as percent of hides [2]: 38.5%
- Adjusted Total, alerts or interest / hides [2]: 10/26
- Adjusted Total, alerts or interest as percent of hides [2]: 38.5%

Structure (SMILES): Cc1ccc([N+](=O)[O-])cc1[N+](=O)[O-]
- vapour pressure relative to 2,4,6-trinitrotoluene [1]: over 35 ×
- Vapour Pressure at 25° C. [1]: 2.1 × 10^−4* torr
- total number of alerts or interest / total number of hides ([2]; Dog Number 101): 1/2
- total number of alerts or interest / total number of hides ([2]; Dog Number 102): 1/1
- total number of alerts or interest / total number of hides ([2]; Dog Number 103): 1/1
- total number of alerts or interest / total number of hides ([2]; Dog Number 104): 1/1
- total number of alerts or interest / total number of hides ([2]; Dog Number 105): 1/1
- total number of alerts or interest / total number of hides ([2]; Dog Number 106): 2/2
- total number of alerts or interest / total number of hides ([2]; Dog Number 107): 1/2
- total number of alerts or interest / total number of hides ([2]; Dog Number 108): 0/3
- total number of alerts or interest / total number of hides ([2]; Dog Number 109): 2/5
- total number of alerts or interest / total number of hides ([2]; Dog Number 110): 3/5
- total number of alerts or interest / total number of hides ([2]; Dog Number 111): 0/1
- total number of alerts or interest / total number of hides ([2]; Dog Number 112): 3/3
- total number of alerts or interest / total number of hides ([2]; Dog Number 113): 1/3
- total number of alerts or interest / total number of hides ([2]; Dog Number 114): 1/1
- total number of alerts or interest / total number of hides ([2]; Dog Number 115): 1/1
- total number of alerts or interest / total number of hides ([2]; Dog Number 116): 1/1
- total number of alerts or interest / total number of hides ([2]; Dog Number 117): 1/3
- total number of alerts or interest / total number of hides ([2]; Dog Number 118): 0/4
- total number of alerts or interest / total number of hides ([2]; Dog Number 119): 0/1
- total number of alerts or interest / total number of hides [2, 3]: 3/4
- total number of alerts or interest / total number of hides ([2]; Dog Number 121): 0/1
- total number of alerts or interest / total number of hides ([2]; Dog Number 126): 1/2
- total number of alerts or interest / total number of hides ([2]; Dog Number 127): 0/2
- total number of alerts or interest / total number of hides ([2]; Dog Number 129): 1/2
- total number of alerts or interest / total number of hides ([2]; Dog Number 133): 0/2
- total number of alerts or interest / total number of hides ([2]; Dog Number 140 (4/6 false alerts, discounted from adjusted totals)): 1/1
- total number of alerts or interest / total number of hides ([2]; Dog Number 141 (4/6 false alerts, discounted from adjusted totals)): 1/1
- total number of alerts or interest / total number of hides ([2]; Dog Number 142): 1/1
- total number of alerts or interest / total number of hides ([2]; Dog Number 144): 0/1
- overall canine population response to odor chemical (alert/interest) [2]: 46.2%
- Total, alerts or interest / hides [2]: 29/58
- Total, alerts or interest as percent of hides [2]: 50.0%
- Adjusted Total, alerts or interest / hides [2]: 24/52
- Adjusted Total, alerts or interest as percent of hides [2]: 46.2%

Structure (SMILES): Cc1c([N+](=O)[O-])cc([N+](=O)[O-])cc1[N+](=O)[O-]
- vapour pressure relative to RDX [1]: three orders of magnitude greater
- % Alert (dogs in training): 25.0%
- Alert (dogs) (dogs in training): FIU
- No Alert (dogs) (dogs in training): B, C
- total number of alerts or interest / total number of hides ([2]; Dog Number 101): 2/2
- total number of alerts or interest / total number of hides ([2]; Dog Number 101, listed as 2,4,6-Trinitrotoluene): 0/2
- total number of alerts or interest / total number of hides ([2]; Dog Number 102): 1/1
- total number of alerts or interest / total number of hides ([2]; Dog Number 103): 1/1
- total number of alerts or interest / total number of hides ([2]; Dog Number 104): 1/1
- total number of alerts or interest / total number of hides ([2]; Dog Number 105): 1/1
- total number of alerts or interest / total number of hides ([2]; Dog Number 106): 1/1
- total number of alerts or interest / total number of hides ([2]; Dog Number 106, listed as 2,4,6-Trinitrotoluene): 2/2
- total number of alerts or interest / total number of hides ([2]; Dog Number 107): 0/1
- total number of alerts or interest / total number of hides ([2]; Dog Number 108): 1/2
- total number of alerts or interest / total number of hides ([2]; Dog Number 109): 1/2
- total number of alerts or interest / total number of hides ([2]; Dog Number 110): 1/1
- total number of alerts or interest / total number of hides ([2]; Dog Number 110, listed as 2,4,6-Trinitrotoluene): 1/2
- total number of alerts or interest / total number of hides ([2]; Dog Number 111): 1/1
- total number of alerts or interest / total number of hides ([2]; Dog Number 112): 1/1
- total number of alerts or interest / total number of hides ([2]; Dog Number 113): 1/1
- total number of alerts or interest / total number of hides ([2]; Dog Number 113, listed as 2,4,6-Trinitrotoluene): 0/2
- total number of alerts or interest / total number of hides ([2]; Dog Number 114): 0/1
- total number of alerts or interest / total number of hides ([2]; Dog Number 115): 1/1
- total number of alerts or interest / total number of hides ([2]; Dog Number 116): 1/1
- total number of alerts or interest / total number of hides ([2]; Dog Number 117): 1/1
- total number of alerts or interest / total number of hides ([2]; Dog Number 117, listed as 2,4,6-Trinitrotoluene): 0/1
- total number of alerts or interest / total number of hides ([2]; Dog Number 118): 1/1
- total number of alerts or interest / total number of hides ([2]; Dog Number 118, listed as 2,4,6-Trinitrotoluene): 0/1
- total number of alerts or interest / total number of hides ([2]; Dog Number 119): 1/1
- total number of alerts or interest / total number of hides ([2]; Dog Number 119, listed as 2,4,6-Trinitrotoluene): 0/1
- total number of alerts or interest / total number of hides [2, 3]: 2/2
- total number of alerts or interest / total number of hides ([2]; Dog Number 121): 0/1
- overall canine population performance on real explosives (location of the training aid) [2, 4]: 100%
- overall canine population performance on real explosives (responses / hides) [2, 4]: 10/10
- overall canine population response to odor chemical (alert/interest) [2]: 50.0%
- Total, alerts or interest / hides [2]: 12/12
- Total, alerts or interest as percent of hides [2]: 100%
- Total, alerts or interest / hides [2, 5]: 13/26
- Total, alerts or interest as percent of hides [2, 5]: 50.0%
- Adjusted Total, alerts or interest / hides [2]: 10/10
- Adjusted Total, alerts or interest as percent of hides [2]: 100%
- Adjusted Total, alerts or interest / hides [2, 5]: 13/26
- Adjusted Total, alerts or interest as percent of hides [2, 5]: 50.0%

This is a selection: effects in other tests are not listed, and their absence says nothing. Marks after values point to notes of the source that are not given here.
